In this assay the target is T1, NDH-2 (type II NADH:quinone oxidoreductase) (Caldalkalibacillus thermarum, UniProt F5L3B8).
T1 construct: gene CathTA2_0279

Protein sequences, listed by entry. Tags and fused reporters are not part of them.
UniProt F5L3B8, entry or part of it: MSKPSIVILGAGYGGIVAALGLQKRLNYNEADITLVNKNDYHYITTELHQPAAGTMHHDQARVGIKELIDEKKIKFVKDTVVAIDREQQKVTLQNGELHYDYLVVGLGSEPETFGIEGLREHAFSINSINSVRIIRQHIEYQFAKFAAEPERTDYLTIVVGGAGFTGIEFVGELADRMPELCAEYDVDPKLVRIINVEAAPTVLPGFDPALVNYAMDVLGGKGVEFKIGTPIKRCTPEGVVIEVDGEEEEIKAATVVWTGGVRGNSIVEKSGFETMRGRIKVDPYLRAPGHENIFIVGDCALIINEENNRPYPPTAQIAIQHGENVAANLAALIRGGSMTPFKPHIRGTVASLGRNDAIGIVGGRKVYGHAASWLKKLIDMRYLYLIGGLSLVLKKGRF

Results on one compound are retold here after publication PMC6167311, “Structure of the NDH-2 – HQNO inhibited complex provides molecular insight into quinone-binding site inhibitors” (Biochimica et Biophysica Acta, 2018).

Structures are written as SMILES.

In the case of `Cc1cc2nc3c(=O)[nH]c(=O)nc-3n(C[C@H](O)[C@H](O)[C@H](O)COP(=O)(O)OP(=O)(O)OC[C@H]3O[C@@H](n4cnc5c(N)ncnc54)[C@H](O)[C@@H]3O)c2cc1C` [FAD], the “crystal structure at 2.8 Å (FAD modelled, with HQNO)” value was “An overview of the NDH-2–HQNO complex structure showing the location of the membrane interface (dashed-line), FAD (blue) and HQNO (yellow)”.
